# Biological target: T1, human γ-tubulin (Homo sapiens, UniProt P23258)
# By UniProt entry, the sequences of proteins in these tests, tags left out.
# UniProt P23258, whole entry: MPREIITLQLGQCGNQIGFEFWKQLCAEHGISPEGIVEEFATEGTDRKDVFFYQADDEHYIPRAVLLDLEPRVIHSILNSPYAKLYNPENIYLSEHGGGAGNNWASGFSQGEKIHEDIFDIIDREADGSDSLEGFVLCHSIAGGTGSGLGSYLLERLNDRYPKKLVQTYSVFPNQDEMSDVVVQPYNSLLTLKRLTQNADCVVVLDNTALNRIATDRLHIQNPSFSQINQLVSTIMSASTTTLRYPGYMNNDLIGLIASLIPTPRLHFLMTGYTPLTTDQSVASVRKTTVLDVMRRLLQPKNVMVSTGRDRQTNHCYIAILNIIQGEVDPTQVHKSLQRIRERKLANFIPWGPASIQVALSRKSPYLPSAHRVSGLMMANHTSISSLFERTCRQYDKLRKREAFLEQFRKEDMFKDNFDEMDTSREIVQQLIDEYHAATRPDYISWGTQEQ
# T1 construct: myc (C); 6His (C); made in house; host or cells: Sf21 insect cells (baculovirus)
# Experiment: Tryptophan-based drug-binding assay, γ-tubulin
# Conditions: tryptophan fluorescence decrease; 1 μM protein; mean±s.d., three independent experiments
# Method: In brief, 0.7 × 10^6 cells ml^−1 were infected with the γ-tubulin baculovirus. After 48 h, cells were collected by centrifugation at […] for 10 min and flash-frozen in liquid nitrogen and stored at −80 °C. Purification was carried out as described with slight modifications. […] Imidazole (final 10 mM) was added and the lysate was centrifuged again at 192,800g for 30 min at 4 °C. […] Ni-NTA Agarose was then washed twice with wash buffer 1 (lysis buffer containing 25 mM imidazole) and wash buffer 2 (50 mM MES pH 6.6, 500 mM KCl, 5 mM MgCl2, 10% glycerol, 10 μM GTP and 1 mM DTT) containing 25 mM imidazole. γ-Tubulin was eluted with wash buffer 2 containing 200 mM imidazole.
# Monomeric γ-tubulin was prepared using a size exclusion column HiLoad 16/60 Superdex 200 pre-equilibrated with gel filtration buffer (50 mM MES pH 6.6, 500 mM KCl, 5 mM MgCl2, 1 mM EGTA, 10 μM GTP and 1 mM DTT). […]
# Gel filtration buffer for γ-tubulin purification (50 mM MES pH 6.6, 500 mM KCl, 5 mM MgCl2, 1 mM EGTA and 1 mM DTT) supplemented with 10% of glycerol was used as an assay buffer. γ-tubulin and α/β-tubulin were diluted in this assay buffer to reach a final protein concentration of 1 μM. […] Dissociation constants were calculated from fitting curves of decreasing fluorescence (ΔFL) using the GraphPad Prizm software.
compound,measurement,value
COc1cc2c(c(OC)c1OC)-c1ccc(OC)c(=O)cc1[C@@H](NC(C)=O)CC2 [Colchicine],Kd,196 ± 47.9 µM
